# Tested on: GIST-T1 cells
# Type: in vivo
compound,measurement,setting,value
"Cc1ccc(NC(=O)c2ccc(CN3CCN(C)CC3)cc2)cc1Nc1nccc(-c2cccnc2)n1 [imatinib, reference compound]","tumor growth compared to the control (vehicle), in words","day 56, imatinib 100 mg/kg p.o.",inhibited tumor growth
same,tumor course after treatment was discontinued,imatinib alone 100 mg/kg p.o.,the tumor recurred after treatment was discontinued
